Several values for one entry are separate records, joined by “and”; a condition that tells them apart may be missing. Equal values may be shown once.
What was measured:
MCH58 fibroblasts [1] = conditions: human
MCH58 fibroblasts [2] = test: Glucose versus galactose cell growth screen (metabolic state-dependent lethality)

With Antimycin A the “LD50 in galactose-rich media as compared to glucose-rich media” value (MCH58 fibroblasts [1]) was “at least four orders of magnitude lower” and the “Sglu/gal (log10 fold change) Score” value (MCH58 fibroblasts [2]) was 0.70 and 0.87.
